Where two headings read alike, the source gives them in different places.
Molecular target: monoamine oxidase A (Homo sapiens, UniProt P21397)
Settings: study 5, subject receiving phenelzine plus amphetamine for depression

Amino acid sequences for entries named in this document (tags omitted).
UniProt P21397, whole entry: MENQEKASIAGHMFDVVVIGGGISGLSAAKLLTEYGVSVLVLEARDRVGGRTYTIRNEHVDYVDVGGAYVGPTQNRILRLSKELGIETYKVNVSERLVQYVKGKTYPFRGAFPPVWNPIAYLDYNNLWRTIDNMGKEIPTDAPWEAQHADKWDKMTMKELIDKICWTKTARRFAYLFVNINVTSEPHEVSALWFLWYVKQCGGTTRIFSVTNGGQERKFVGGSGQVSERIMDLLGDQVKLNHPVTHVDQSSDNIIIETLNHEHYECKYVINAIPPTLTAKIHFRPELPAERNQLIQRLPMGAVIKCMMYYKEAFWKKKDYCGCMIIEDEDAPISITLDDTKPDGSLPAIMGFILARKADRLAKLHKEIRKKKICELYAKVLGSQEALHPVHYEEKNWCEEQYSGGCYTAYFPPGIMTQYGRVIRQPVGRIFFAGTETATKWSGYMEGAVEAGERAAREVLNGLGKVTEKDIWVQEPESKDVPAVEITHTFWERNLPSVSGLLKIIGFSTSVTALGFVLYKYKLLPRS

C#CCN([11CH3])CCCOc1ccc(Cl)cc1Cl [[^11 C]clorgyline]
Ki influx rate constant (brainstem): 0.06 milliliters per cubic centimet | Ki influx rate constant (cortex): 0.04 milliliters per cubic centimet | Ki influx rate constant (striatum): 0.07 milliliters per cubic centimet | Ki influx rate constant (thalamus): 0.08 milliliters per cubic centimet

— patent US4913891A, “Positron emitter labeled enzyme inhibitors” (The United States of America as represented by the United …, priority 1987, dated 1990)
